{"sequences": {"note": "Protein sequences, listed by entry. Tags and fused reporters are not part of them. Residues count along the entry.", "UniProt G3K533, 1-205": "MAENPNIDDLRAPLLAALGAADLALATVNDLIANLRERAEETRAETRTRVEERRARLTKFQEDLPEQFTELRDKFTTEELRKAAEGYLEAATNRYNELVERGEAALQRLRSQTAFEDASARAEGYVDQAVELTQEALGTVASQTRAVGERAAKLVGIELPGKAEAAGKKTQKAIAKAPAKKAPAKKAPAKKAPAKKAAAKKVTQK"}, "source": "paper PMC3293801", "about": "“Differential Contribution of the Repeats to Heparin Binding of HBHA, a Major Adhesin of Mycobacterium tuberculosis” (PLoS ONE, 2012)", "target": "Maa HBHA (Mycobacterium avium, UniProt G3K533)", "data": [{"substance": "dp14 heparin-derived oligosaccharide", "values": [{"measurement": "Kd", "value": "47 ± 8", "unit": "µM"}]}]}
